The subject of this series is intracranial ST1360B PDX tumors. To be noted: individual mouse, scale 0-4 (0 no, 4 massive brain edema).

“And” between values parts separate entries of the source, which are not always exact repeats. Equal entries are not always repeated.

On to T-DM1, for which the “Brain edema score day 3” value (day 3 post initiation of therapy) is 1 and 2. The “Brain edema score day 7” value (day 7 post initiation of therapy) was 2 (2×) and 1 (3×). In addition, the “Brain edema score day 10” value (day 10 post initiation of therapy) is 3 (2×) and 2 and 1. The “Brain edema score day 14” value (day 14 post initiation of therapy) was 2 (3×) and 3 (2×). For the same substance, the “Brain edema score day 21” value (day 21 post initiation of therapy) is recorded as 2. The “Brain edema score day 28” value (day 28 post initiation of therapy) is given as 3. The “Brain edema final score” value (last MR scan of each mouse) is 3 (4×) and 2.

The values above are taken from patent EP4810518A2, “ANTIBODY THAT BINDS ERBB-2 AND ERBB-3” (Merus B.V., priority 2017, dated 2018).
